Results reported in publication PMC3762362, “Three-color single molecule imaging shows WASP detachment from Arp2/3 complex triggers actin filament branch formation” (eLife, 2013).

What was measured:
Conditions in all cases: both partners purified
[1] = target: Rabbit muscle actin (monomeric) (rabbit, UniProt P68135 1-377); assay: fluorescence polarisation; fluorescence anisotropy, direct titration of rabbit muscle actin into 20 nM VCA-AF488; 10 mM imidazole pH 7.0, 50 mM KCl, 1 mM EGTA, 1 mM MgCl2, 0.5 mM DTT, 0.1 mM ATP; room temperature
[2] = target: T1, Non-polymerizable Drosophila melanogaster 5C actin (D287A/V288A/D289A) (Drosophila melanogaster, UniProt P10987 3-376, D287A | V288A | D289A); assay: fluorescence polarisation; fluorescence anisotropy of 10 nM VCA-AF594 with increasing non-polymerizable Drosophila 5C actin or yeast Arp2/3 complex; single site binding isotherm
[3] = target: T1, Non-polymerizable Drosophila …; assay: fluorescence polarisation; fluorescence anisotropy of 10 nM VCA-AF594 with increasing non-polymerizable Drosophila 5C actin in the presence of 300 nM yeast Arp2/3 complex; single site binding isotherm

B1: VCA-AF488 (N-WASP VCA 430–505, S430C, C431A, AlexaFluor488 labeled) (domain or fragment)
chain: CASGRDALLDQIRQGIQLKSVADGQESTPPTPAPTSGIVGALMEVMQKRSKAIHSSDEDEDEDDEEDFEDDDEWED
modifications: AlexaFluor488 maleimide on the single Cys (S430C)
notes: N-WASP VCA amino acid residues 430–505; also called N-WASP VCA-AF488; AF488-labeled N-WASP VCA; source: E. coli BL21(DE3) T1R, purified (as the VCA dimers, then SOURCE15Q and Superdex 75); not shown: GST, N-terminal, cleaved
Kd [1]: 220 nM

B2: VCA-AF594 (N-WASP VCA 430–505, S430C, C431A, AlexaFluor 594 labeled) (domain or fragment)
chain: B1 chain
modifications: AlexaFluor 594 maleimide on the single Cys (S430C)
notes: N-WASP VCA amino acid residues 430–505, as for VCA-AF488; Same peptide as m12 with another dye; also called VCA-A594; source: E. coli BL21(DE3) T1R, purified (similar method to VCA-AF488); not shown: GST, N-terminal, cleaved
Kd [2]: 70 ± 10 nM | Kd [3]: 105 ± 15 nM
